The test relates to AP2M1 MU. The class given is binding, human.

As for “QVVSDIDYVPLKSATA S13G (QVVSDIDYVPLKGATA)”, the “PSSM value of the substitution (DMS by phage display)” value (from here on “PSSM value of the substitution”) was 0.0002734.

Take “QVVSDIDYVPLKSATA S13H (QVVSDIDYVPLKHATA)”: the “PSSM value of the substitution” value came out at 6.736e-5.

Consider “QVVSDIDYVPLKSATA S13I (QVVSDIDYVPLKIATA)”, for which the “PSSM value of the substitution” value is given as 3.432e-5.

Regarding “QVVSDIDYVPLKSATA S13K (QVVSDIDYVPLKKATA)”, the “PSSM value of the substitution” value stood at 0.

On to “QVVSDIDYVPLKSATA S13L (QVVSDIDYVPLKLATA)”, for which the “PSSM value of the substitution” value is recorded as 0.0009784.

On to “QVVSDIDYVPLKSATA S13M (QVVSDIDYVPLKMATA)”, for which the “PSSM value of the substitution” value is 0.

For the sequence “QVVSDIDYVPLKSATA S13N (QVVSDIDYVPLKNATA)”, the “PSSM value of the substitution” value worked out at 0.05943.

As to “QVVSDIDYVPLKSATA S13P (QVVSDIDYVPLKPATA)”, the “PSSM value of the substitution” value is recorded as 0.

Turning to “QVVSDIDYVPLKSATA S13Q (QVVSDIDYVPLKQATA)”, the “PSSM value of the substitution” value turned out to be 3.305e-5.

For the sequence “QVVSDIDYVPLKSATA S13R (QVVSDIDYVPLKRATA)”, the “PSSM value of the substitution” value came out at 0.

As to QVVSDIDYVPLKSATA S13S, the “PSSM value of the substitution” value came to 0.00214.

On to “QVVSDIDYVPLKSATA S13T (QVVSDIDYVPLKTATA)”, for which the “PSSM value of the substitution” value is 3.432e-5.

Regarding “QVVSDIDYVPLKSATA S13V (QVVSDIDYVPLKVATA)”, the “PSSM value of the substitution” value amounted to 6.609e-5.

For “QVVSDIDYVPLKSATA S13W (QVVSDIDYVPLKWATA)”, the “PSSM value of the substitution” value was determined as 0.01244.

As for “QVVSDIDYVPLKSATA S13Y (QVVSDIDYVPLKYATA)”, the “PSSM value of the substitution” value came out at 6.609e-5.

As to “QVVSDIDYVPLKSATA T15A (QVVSDIDYVPLKSAAA)”, the “PSSM value of the substitution” value stood at 0.002863.

Regarding “QVVSDIDYVPLKSATA T15D (QVVSDIDYVPLKSADA)”, the “PSSM value of the substitution” value came out at 0.002432.

Take “QVVSDIDYVPLKSATA T15E (QVVSDIDYVPLKSAEA)”: the “PSSM value of the substitution” value was determined as 0.0006744.

For “QVVSDIDYVPLKSATA T15F (QVVSDIDYVPLKSAFA)”, the “PSSM value of the substitution” value is given as 0.001169.

Consider “QVVSDIDYVPLKSATA T15G (QVVSDIDYVPLKSAGA)”, for which the “PSSM value of the substitution” value is 0.0008526.

As to “QVVSDIDYVPLKSATA T15H (QVVSDIDYVPLKSAHA)”, the “PSSM value of the substitution” value was found to be 0.5033.

In the case of “QVVSDIDYVPLKSATA T15I (QVVSDIDYVPLKSAIA)”, the “PSSM value of the substitution” value was 0.

As for “QVVSDIDYVPLKSATA T15K (QVVSDIDYVPLKSAKA)”, the “PSSM value of the substitution” value is 0.

In the case of “QVVSDIDYVPLKSATA T15L (QVVSDIDYVPLKSALA)”, the “PSSM value of the substitution” value is 0.002355.

“QVVSDIDYVPLKSATA T15M (QVVSDIDYVPLKSAMA)”: the “PSSM value of the substitution” value stood at 0.3725.

For the sequence “QVVSDIDYVPLKSATA T15N (QVVSDIDYVPLKSANA)”, the “PSSM value of the substitution” value came to 0.

As to “QVVSDIDYVPLKSATA T15P (QVVSDIDYVPLKSAPA)”, the “PSSM value of the substitution” value worked out at 0.001757.

For “QVVSDIDYVPLKSATA T15Q (QVVSDIDYVPLKSAQA)”, the “PSSM value of the substitution” value is given as 0.

For the sequence “QVVSDIDYVPLKSATA T15R (QVVSDIDYVPLKSARA)”, the “PSSM value of the substitution” value is recorded as 0.

As to “QVVSDIDYVPLKSATA T15S (QVVSDIDYVPLKSASA)”, the “PSSM value of the substitution” value was determined as 0.04411.

For the sequence QVVSDIDYVPLKSATA T15T, the “PSSM value of the substitution” value came to 0.02158.

Take “QVVSDIDYVPLKSATA T15V (QVVSDIDYVPLKSAVA)”: the “PSSM value of the substitution” value came to 0.

For the sequence “QVVSDIDYVPLKSATA T15W (QVVSDIDYVPLKSAWA)”, the “PSSM value of the substitution” value is 0.04319.

Turning to “QVVSDIDYVPLKSATA T15Y (QVVSDIDYVPLKSAYA)”, the “PSSM value of the substitution” value was determined as 0.003284.

For QVVSDIDYVPLKSATA V2A (QAVSDIDYVPLKSATA), the “PSSM value of the substitution” value was determined as 0.000765.

With QVVSDIDYVPLKSATA V2D (QDVSDIDYVPLKSATA), the “PSSM value of the substitution” value is listed as 0.

Regarding QVVSDIDYVPLKSATA V2E (QEVSDIDYVPLKSATA), the “PSSM value of the substitution” value stood at 0.

Consider QVVSDIDYVPLKSATA V2F (QFVSDIDYVPLKSATA), for which the “PSSM value of the substitution” value amounted to 0.4936.

As to QVVSDIDYVPLKSATA V2G (QGVSDIDYVPLKSATA), the “PSSM value of the substitution” value is 0.

For the sequence QVVSDIDYVPLKSATA V2H (QHVSDIDYVPLKSATA), the “PSSM value of the substitution” value worked out at 0.2203.

As for QVVSDIDYVPLKSATA V2I (QIVSDIDYVPLKSATA), the “PSSM value of the substitution” value came out at 0.1139.

In the case of QVVSDIDYVPLKSATA V2K (QKVSDIDYVPLKSATA), the “PSSM value of the substitution” value came out at 0.

On to QVVSDIDYVPLKSATA V2L (QLVSDIDYVPLKSATA), for which the “PSSM value of the substitution” value stood at 0.007947.

QVVSDIDYVPLKSATA V2M (QMVSDIDYVPLKSATA): the “PSSM value of the substitution” value is 0.002348.

Consider QVVSDIDYVPLKSATA V2N (QNVSDIDYVPLKSATA), for which the “PSSM value of the substitution” value worked out at 0.001346.

As for QVVSDIDYVPLKSATA V2P (QPVSDIDYVPLKSATA), the “PSSM value of the substitution” value stood at 0.005944.

Turning to QVVSDIDYVPLKSATA V2Q (QQVSDIDYVPLKSATA), the “PSSM value of the substitution” value was 0.

Consider QVVSDIDYVPLKSATA V2R (QRVSDIDYVPLKSATA), for which the “PSSM value of the substitution” value came out at 0.0006615.

As to QVVSDIDYVPLKSATA V2S (QSVSDIDYVPLKSATA), the “PSSM value of the substitution” value is given as 0.002909.

In the case of QVVSDIDYVPLKSATA V2T (QTVSDIDYVPLKSATA), the “PSSM value of the substitution” value was found to be 0.001139.

Consider QVVSDIDYVPLKSATA V2V, for which the “PSSM value of the substitution” value was determined as 0.02883.

Turning to QVVSDIDYVPLKSATA V2W (QWVSDIDYVPLKSATA), the “PSSM value of the substitution” value came out at 0.1203.

As for QVVSDIDYVPLKSATA V2Y (QYVSDIDYVPLKSATA), the “PSSM value of the substitution” value is 0.

With QVVSDIDYVPLKSATA V3A (QVASDIDYVPLKSATA), the “PSSM value of the substitution” value turned out to be 0.

As for QVVSDIDYVPLKSATA V3D (QVDSDIDYVPLKSATA), the “PSSM value of the substitution” value was determined as 0.0002899.

On to QVVSDIDYVPLKSATA V3E (QVESDIDYVPLKSATA), for which the “PSSM value of the substitution” value was determined as 0.02236.

Turning to QVVSDIDYVPLKSATA V3F (QVFSDIDYVPLKSATA), the “PSSM value of the substitution” value is 0.001289.

QVVSDIDYVPLKSATA V3G (QVGSDIDYVPLKSATA): the “PSSM value of the substitution” value is reported as 0.001029.

QVVSDIDYVPLKSATA V3H (QVHSDIDYVPLKSATA): the “PSSM value of the substitution” value turned out to be 0.8492.

As to QVVSDIDYVPLKSATA V3I (QVISDIDYVPLKSATA), the “PSSM value of the substitution” value came out at 0.09709.

Take QVVSDIDYVPLKSATA V3K (QVKSDIDYVPLKSATA): the “PSSM value of the substitution” value is recorded as 0.

As to QVVSDIDYVPLKSATA V3L (QVLSDIDYVPLKSATA), the “PSSM value of the substitution” value is 0.

Turning to QVVSDIDYVPLKSATA V3M (QVMSDIDYVPLKSATA), the “PSSM value of the substitution” value came out at 0.

As to QVVSDIDYVPLKSATA V3N (QVNSDIDYVPLKSATA), the “PSSM value of the substitution” value is on record as 0.0005799.

Turning to QVVSDIDYVPLKSATA V3P (QVPSDIDYVPLKSATA), the “PSSM value of the substitution” value worked out at 0.007805.

In the case of QVVSDIDYVPLKSATA V3Q (QVQSDIDYVPLKSATA), the “PSSM value of the substitution” value is given as 0.000395.

With QVVSDIDYVPLKSATA V3R (QVRSDIDYVPLKSATA), the “PSSM value of the substitution” value turned out to be 0.

On to QVVSDIDYVPLKSATA V3S (QVSSDIDYVPLKSATA), for which the “PSSM value of the substitution” value amounted to 0.00118.

For the sequence QVVSDIDYVPLKSATA V3T (QVTSDIDYVPLKSATA), the “PSSM value of the substitution” value was 0.002843.

In the case of QVVSDIDYVPLKSATA V3V, the “PSSM value of the substitution” value was determined as 0.01264.

QVVSDIDYVPLKSATA V3W (QVWSDIDYVPLKSATA): the “PSSM value of the substitution” value is reported as 0.003269.

QVVSDIDYVPLKSATA V3Y (QVYSDIDYVPLKSATA): the “PSSM value of the substitution” value amounted to 0.

As to QVVSDIDYVPLKSATA V9A (QVVSDIDYAPLKSATA), the “PSSM value of the substitution” value was determined as 0.00865.

QVVSDIDYVPLKSATA V9D (QVVSDIDYDPLKSATA): the “PSSM value of the substitution” value is recorded as 0.

Turning to QVVSDIDYVPLKSATA V9E (QVVSDIDYEPLKSATA), the “PSSM value of the substitution” value amounted to 0.5702.

Regarding QVVSDIDYVPLKSATA V9F (QVVSDIDYFPLKSATA), the “PSSM value of the substitution” value stood at 0.1527.

On to QVVSDIDYVPLKSATA V9G (QVVSDIDYGPLKSATA), for which the “PSSM value of the substitution” value is 0.

In the case of QVVSDIDYVPLKSATA V9H (QVVSDIDYHPLKSATA), the “PSSM value of the substitution” value is recorded as 0.1369.

As for QVVSDIDYVPLKSATA V9I (QVVSDIDYIPLKSATA), the “PSSM value of the substitution” value stood at 0.006015.

As for QVVSDIDYVPLKSATA V9K (QVVSDIDYKPLKSATA), the “PSSM value of the substitution” value amounted to 0.01324.

On to QVVSDIDYVPLKSATA V9L (QVVSDIDYLPLKSATA), for which the “PSSM value of the substitution” value is 0.

QVVSDIDYVPLKSATA V9M (QVVSDIDYMPLKSATA): the “PSSM value of the substitution” value was found to be 0.

For the sequence QVVSDIDYVPLKSATA V9N (QVVSDIDYNPLKSATA), the “PSSM value of the substitution” value was found to be 0.

Regarding QVVSDIDYVPLKSATA V9P (QVVSDIDYPPLKSATA), the “PSSM value of the substitution” value came out at 0.

For the sequence QVVSDIDYVPLKSATA V9Q (QVVSDIDYQPLKSATA), the “PSSM value of the substitution” value is on record as 0.002905.

Values taken from article PMC12102759 (Protein Science : A Publication of the Protein Society, 2025).
